Consider 1 compound from PMC2918654 (Bioorganic & medicinal chemistry, 2010).

Chains of the proteins cited; added tags and fusions are not shown. Lines headed by an entry give the natural chain unless they say otherwise; changes in a name come on top.
UniProt P33533, whole entry: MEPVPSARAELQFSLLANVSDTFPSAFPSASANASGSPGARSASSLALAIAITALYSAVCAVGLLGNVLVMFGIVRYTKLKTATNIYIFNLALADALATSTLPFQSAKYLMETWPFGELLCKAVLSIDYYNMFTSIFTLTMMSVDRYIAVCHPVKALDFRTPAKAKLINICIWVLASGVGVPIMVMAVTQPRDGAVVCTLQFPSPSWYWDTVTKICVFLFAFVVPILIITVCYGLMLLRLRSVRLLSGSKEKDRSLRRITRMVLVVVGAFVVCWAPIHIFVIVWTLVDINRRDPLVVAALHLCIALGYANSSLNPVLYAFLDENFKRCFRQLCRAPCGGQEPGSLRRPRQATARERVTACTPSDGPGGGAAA
UniProt P32300, whole entry: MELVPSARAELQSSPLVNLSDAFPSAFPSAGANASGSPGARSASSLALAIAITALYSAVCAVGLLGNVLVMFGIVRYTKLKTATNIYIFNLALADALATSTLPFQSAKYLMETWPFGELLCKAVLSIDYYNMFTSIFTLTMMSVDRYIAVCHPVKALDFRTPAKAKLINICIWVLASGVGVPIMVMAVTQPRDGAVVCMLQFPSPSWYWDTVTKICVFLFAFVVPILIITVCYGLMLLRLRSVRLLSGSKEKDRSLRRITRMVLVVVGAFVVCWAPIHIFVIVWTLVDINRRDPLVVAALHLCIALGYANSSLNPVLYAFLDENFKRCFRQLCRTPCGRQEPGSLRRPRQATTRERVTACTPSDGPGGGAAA

For one assay, the target named is δ-opioid receptors (Rattus norvegicus, UniProt P33533). The note with it: from affinity data, ref Guerrini et al.[17]; cited from earlier work.
A further assay addresses δ-opioid receptor (Mus musculus, UniProt P32300). Kind of assay: Electrically stimulated mouse vas deferens. It counts as cell-based.

Take `CC(C)[C@H](NC(=O)[C@H](CCC(=O)O)NC(=O)[C@H](Cc1ccccc1)NC(=O)[C@@H](C)NC(=O)[C@@H](N)Cc1ccc(O)cc1)C(=O)N[C@H](C(=O)NCC(N)=O)C(C)C` [Compound 9, H-Tyr-D-Ala-Phe-Glu-Val-Val-Gly-NH2]: the “selectivity Ki^μ/Ki^δ” value at δ-opioid receptors was 5317. Besides, on δ-opioid receptor, inhibition was half-maximal at 530 ± 20 pM (IC50).
